ASAP1 inh: ASAP1 ArfGAP inhibition | hit rate 0.19% among 360,000 | Q9ULH1 | inhibition, % at 16.5 µM | AID 624377 | ASAP1-stimulated ARF1 GTP hydrolysis, GDP FP detection; in the data active = inhibition above about 25%;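 also: 0% = vehicle with enzyme and substrate and 100% = no enzyme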
MC4R barr agon: activates human MC4R beta-arrestin recruitment; AID 540308; U2OS MC4R beta-arrestin complementation, luminescence; percent of melanotan II response, DMSO zero; hit rate 0.98% among 360,000; activation, % at 8.9 µM; P32245;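 active = activation above a per-plate cutoff, the mean activation of sample wells on that plate plus 3 SD, cut at about 8% in these data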
CendR NRP1 mod: alters CendR peptide binding to human NRP-1. O14786. hit rate 0.85% among 360,000. FAM-RPARPAR peptide binding to NRP-1, fluorescence polarization. AID 602438. inhibition, % at 25 µM;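 active = inhibition or corrected inhibition above about 18%, plus a signal ratio from 0.5 to 1.5, limit read from the data, passing the limit was not always enough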
ARFGAP1 inhibitor: inhibits rat ARF GTPase activating protein 1; hit rate 0.26% among 360,000; Arfgap1-stimulated ARF1 GTP hydrolysis, GDP FP detection; Q62848; inhibition, % at 16.5 µM;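 active = inhibition above a per-plate limit, mean inhibition of low control wells plus 3 SD, cut at about 25% in these data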;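 also: 0% = DMSO wells with enzyme and 100% = wells lacking Arfgap1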
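Assay system: Rat Arfgap1 GAP domain (His6, aa 1-136), purified enzyme | Buffer or medium: HEPES 25 mM pH 7.5, NaCl 150 mM, MgCl2, DTT | Schedule: GTP hydrolysis reaction 2 h at 25 °C | Signal: FP of antibody-bound GDP Alexa 633 tracer, ex 620/em 688 nm | Measure: Percent inhibition of Arfgap1-stimulated GTP hydrolysis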
Yeast UUG start: alters start codon recognition fidelity in yeast | S. cerevisiae UUG-firefly luciferase reporter, luminescence/redox ratio | activity score, % at 18.7 µM | hit rate 0.13% among 350,000 | AID 602363;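 active means replicate mean at a twofold rise or more, about +100% in these data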;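 further: firefly luciferase made from a UUG start codon reports start codon fidelity; reporter light over untreated wells divided by growth signal over untreated wells; some hits fall short of that in this replicate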
MC4R antagonist: antagonists of human melanocortin 4 receptor (MC4R); P32245; MC4R-expressing cells, MTII-stimulated cAMP, LANCE TR-FRET; inhibition, % at 6.5 µM; hit rate 0.48% among 360,000; AID 540295;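 active = inhibition above its plate's cutoff, the mean of tested wells on that plate plus 3 SD, cut at about 29% in these data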;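 also: 0% = Melanotan II alone and 100% = Melanotan II plus saturating MCL0020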
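Material: human MC4R-expressing U2OS cells. Probe or stimulus: Melanotan II challenge. Dosing: 6.5 µM single dose. Times: 30-min compound, 1-h challenge, 1-h detection, room temperature. Technique: TR-FRET with Eu-cAMP and labeled anti-cAMP, 671 nm. Replication: singlicate.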
Active calls of the source: *; · = no result. Hits are enriched below; roughly 2.3% of the tested compounds scored in any of these assays.

1	Cc1ccc(S(=O)(=O)CCC(=O)c2cccc([N+](=O)[O-])c2)cc1
2	CCOC(=O)c1ccc([N+](=O)[O-])c(CS(=O)(=O)c2ccc(Cl)cc2)c1
3	Cc1ccc(S(=O)(=O)Cc2cc(F)c([N+](=O)[O-])cc2[N+](=O)[O-])cc1
4	O=C(C[C@H]1CC[C@H](NC(=O)c2ccccn2)[C@@H](CO)O1)NCc1cc(F)cc(F)c1
5	C[C@H](NC(=O)C[C@@H]1C=C[C@@H](NC(=O)C2CCC2)[C@@H](CO)O1)c1ccccc1
6	COc1ccccc1C(=O)Nc1onc(C)c1C#N
7	CO[C@@H]1CN(C)C(=O)c2ccc(NC(=O)C3CC3)cc2OC[C@H](C)N(Cc2ccc(F)cc2)C[C@H]1C
8	CN(CC(=O)Nc1ccc(F)cc1)C(=O)c1ccc(OCc2cn3ccccc3n2)cc1
9	Cc1cc(C)n(-c2ccc(C(=O)OCC(=O)NC(c3ccccc3)c3ccccc3)cc2)n1
10	CN1C(=O)c2cc(NC(=O)c3ccc(F)c(F)c3)ccc2OC[C@H]2O[C@H](CC(=O)O)CC[C@@H]21
Screen / compound no. | 1 | 2 | 3 | 4 | 5 | 6 | 7 | 8 | 9 | 10
ASAP1 inh | -8 | -7 | · | · | · | 3 | · | 8 | 15 | ·
MC4R barr agon | -3 | 0 | 2 | · | · | -4 | · | 0 | 9.3* | ·
CendR NRP1 mod | 11 | -4 | 10 | · | · | 20* | · | 27* | 17 | ·
ARFGAP1 inhibitor | 10 | -3 | · | · | · | -9 | · | -1 | 16 | ·
Yeast UUG start | -8 | -3 | -13 | 1 | -11 | · | 17 | · | · | -8
MC4R antagonist | 31* | 9 | 31* | · | · | 7 | · | 4 | 20 | ·

11	O=C1OC(c2ccc3ccccc3c2O)(c2ccc3ccccc3c2O)c2ccccc21
12	Cc1cc(OCC(O)CNC(C)c2ccccc2)ccc1C(C)C (centres undefined)
13	COc1ccc(C(=O)NNC2=Nc3cccc4cccc2c34)cc1
14	Cn1c(=O)c2[nH]c(COc3ccccc3)nc2n(C)c1=O
15	CCCOc1ccc(-c2nc(C#N)c(N3CCN(C)CC3)o2)cc1
16	CCOc1ccc(-c2nc(C#N)c(N3CCN(C)CC3)o2)cc1
17	Cc1snc(S(=O)(=O)/C(C#N)=N/Nc2cccc(C(F)(F)F)c2)c1C#N
18	C/C(=N\Nc1cccc(C(F)(F)F)c1)c1ccc(O)cc1
19	O=C(Nc1ccc(NC(=O)C2CC2)nc1)c1cnccn1
20	O=C(Nc1ccc(NC(=O)C2CC2)nc1)c1ccccn1
Screen / compound no. | 11 | 12 | 13 | 14 | 15 | 16 | 17 | 18 | 19 | 20
ASAP1 inh | 6 | 3 | 2 | 10 | 12 | -7 | · | 7 | -2 | -7
MC4R barr agon | 0 | 9.2* | 9.0* | -1 | 0 | 0 | -1 | -4 | -1 | -1
CendR NRP1 mod | 26* | -4 | -8 | 32* | 34* | -6 | 27* | 5 | 19* | -7
ARFGAP1 inhibitor | 12 | 3 | 12 | -6 | -3 | 20 | · | 4 | -4 | -6
Yeast UUG start | -9 | -8 | · | -17 | -9 | -16 | 1 | 8 | · | -38
MC4R antagonist | -3 | 0 | -5 | 3 | 19 | 1 | 5 | -1 | -2 | 2

21	Cc1cccc(NC(=O)Nc2ccc(C#N)cc2)n1
22	Cc1cccc(NC(=O)Nc2cccc(C#N)c2)n1
23	C[C@@H]1CN([C@@H](C)CO)C(=O)c2cc(C#CCN(C)C)cnc2O[C@H]1CN(C)Cc1ccccc1
24	C[C@@H]1CN([C@@H](C)CO)C(=O)c2cc(NC(=O)CCC(F)(F)F)ccc2O[C@@H](C)CCCCO[C@@H]1CN(C)S(=O)(=O)c1ccccc1
25	CC(/C=N/NC(=O)c1cc(-c2ccc(C)o2)[nH]n1)=C\c1ccccc1
26	Cc1ccc(-c2cc(C(=O)N/N=C/c3ccccc3)n[nH]2)o1
27	Cc1c(NC(=O)CN2C(=O)NC(C)(c3ccccc3)C2=O)c(=O)n(-c2ccccc2)n1C (centres undefined)
28	Cc1c(NC(=O)COc2c(F)c(F)c(F)c(F)c2F)c(=O)n(-c2ccccc2)n1C
29	O=c1[nH]c2ccccc2c2ccc(Cl)cc12
30	O=C(CSc1ccc(Cl)cc1)Nc1ccc(N2CCN(C(=O)c3ccc(Cl)cc3)CC2)cc1
Screen / compound no. | 21 | 22 | 23 | 24 | 25 | 26 | 27 | 28 | 29 | 30
ASAP1 inh | 6 | 4 | · | · | 13 | 6 | -4 | -7 | 15 | 5
MC4R barr agon | 2 | 8.2* | · | · | 9.2* | 0 | 0 | -1 | 8.5* | 14*
CendR NRP1 mod | -7 | -6 | · | · | 1 | 11 | 3 | 1 | 1 | 0
ARFGAP1 inhibitor | 9 | 8 | · | · | -2 | 3 | -7 | 27* | -1 | -9
Yeast UUG start | -19 | -16 | -9 | 3 | -4 | 3 | · | 2 | · | -20
MC4R antagonist | 10 | -17 | · | · | 2 | 0 | 29* | 24 | -6 | 16

31	O=C(CSc1nc2cc(Cl)ccc2o1)Nc1ccc(N2CCOCC2)cc1
32	Cc1noc(C)c1S(=O)(=O)Nc1cccc2c1O[C@@H](CN(C)Cc1ccc(Cl)c(Cl)c1)[C@@H](C)CN([C@@H](C)CO)C2=O
33	CCCNC(=O)Nc1ccc2c(c1)C(=O)N(C)[C@@H]1CC[C@@H](CC(=O)NCc3ccccc3)O[C@@H]1CO2
34	C[C@@H]1CN([C@H](C)CO)C(=O)c2cc(NC(=O)Nc3cccc4ccccc34)ccc2O[C@H]1CN(C)C(=O)Nc1ccc2c(c1)OCO2
35	O=C1C=C(c2cccc3c2Oc2ccccc2S3)C[C@@H](c2ccc(Cl)cc2)C1
36	O=C1C=C(c2cccc3c2Oc2ccccc2S3)C[C@@H](c2ccc3c(c2)OCO3)C1
37	COc1ccccc1NC(=O)N[C@@H]1CC[C@@H](CC(=O)N[C@@H](C)c2ccccc2)O[C@@H]1CO
38	O=C(CCN1CCN(c2ccccc2)CC1)NNC(=O)Cc1ccccc1Cl
39	O=C(CCN1CCN(c2ccccc2)CC1)Nc1cccc(Br)c1
40	O=C(NCCN1CCN(c2cccc(Cl)c2)CC1)Nc1ccccc1
Screen / compound no. | 31 | 32 | 33 | 34 | 35 | 36 | 37 | 38 | 39 | 40
ASAP1 inh | · | · | · | · | -4 | -7 | · | 5 | -4 | -1
MC4R barr agon | 19* | · | · | · | 0 | · | · | -2 | 8.6* | 1
CendR NRP1 mod | 0 | · | · | · | 29* | · | · | 37* | -4 | 2
ARFGAP1 inhibitor | · | · | · | · | 4 | 5 | · | -4 | 5 | 3
Yeast UUG start | · | 9 | 4 | -11 | -7 | · | -4 | -14 | -6 | 0
MC4R antagonist | -3 | · | · | · | 5 | · | · | 0 | 10 | 14

41	O=C(CCN1CCN(c2ccccc2)CC1)NNC(=O)Cc1c(F)cccc1Cl
42	O=C(NCCN1CCN(c2ccccc2)CC1)Nc1ccc(Cl)cc1
43	O=C(CCN1CCCC1)Nc1cccc(Br)c1
44	COCC#Cc1ccc2c(c1)O[C@@H](CN(C)S(=O)(=O)c1cccc(OC)c1)[C@@H](C)CN([C@H](C)CO)S2(=O)=O
45	COc1cc(/C=C/C(=O)OCC(=O)c2ccc3c(c2)NC(=O)CO3)ccc1OC(F)F
46	COc1ccc(/C=C/C(=O)OCC(=O)c2ccc3c(c2)NC(=O)CO3)cc1
47	O=C(CCCCCN1C(=O)c2ccccc2C1=O)NC1CCCC1
48	Cc1ccc(NC(CC(=O)c2ccccc2)c2ccc(F)cc2)cc1 (centres undefined)
Screen / compound no. | 41 | 42 | 43 | 44 | 45 | 46 | 47 | 48
ASAP1 inh | 5 | -3 | 11 | · | -13 | -10 | -4 | 0
MC4R barr agon | -2 | 9.2* | -1 | · | 0 | 13* | -1 | 1
CendR NRP1 mod | -4 | 11 | -2 | · | -14 | -6 | 24* | -15
ARFGAP1 inhibitor | -5 | 1 | 1 | · | 5 | -10 | 2 | 7
Yeast UUG start | -14 | -20 | -21 | 12 | -12 | -18 | 8 | ·
MC4R antagonist | -2 | 5 | 0 | · | 9 | 9 | 7 | 5

High-throughput results from PubChem BioAssay.
